Measurements as given in PubChem BioAssay (NCI).
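Each compound was tested at five concentrations against cells in 96-well plates for 48 hours. GI50 = concentration required for 50% inhibition of growth. TGI denotes the concentration required for complete inhibition of growth.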

System: MDA-MB-468 breast
Experiment: NCI anticancer screen, dose series, 48 h

CCN(CC)[P+](c1ccc(OC)cc1OC)(N(CC)CC)N(CC)CC
GI50: 0.409 µM
TGI: 6.23 µM
